Measurements from patent publication US20180338955A1, “METHODS FOR REGULATION AND TREATMENT OF GLIOMA CELL MIGRATION AND GLIOBLASTOMA” (priority 2015, published 2018).
Entries after “also recorded” stand apart in the source; their conditions may differ.

Chains of the proteins cited; added tags and fusions are not shown.
UniProt P07947, whole entry: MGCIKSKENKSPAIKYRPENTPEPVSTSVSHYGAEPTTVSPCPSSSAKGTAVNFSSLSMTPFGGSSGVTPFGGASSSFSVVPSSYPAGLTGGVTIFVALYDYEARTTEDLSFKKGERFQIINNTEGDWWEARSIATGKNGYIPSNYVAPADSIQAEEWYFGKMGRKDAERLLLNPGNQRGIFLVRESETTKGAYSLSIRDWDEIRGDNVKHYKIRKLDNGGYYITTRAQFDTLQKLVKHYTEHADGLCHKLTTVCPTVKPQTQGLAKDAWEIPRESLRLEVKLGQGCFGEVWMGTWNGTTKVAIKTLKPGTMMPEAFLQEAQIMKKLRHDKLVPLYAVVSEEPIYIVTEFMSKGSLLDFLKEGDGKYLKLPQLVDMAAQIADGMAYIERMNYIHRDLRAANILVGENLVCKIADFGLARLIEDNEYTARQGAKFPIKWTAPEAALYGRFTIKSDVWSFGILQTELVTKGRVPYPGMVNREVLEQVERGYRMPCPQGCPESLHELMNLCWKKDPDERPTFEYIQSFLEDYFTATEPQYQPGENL

Biological target: T1, Yes (Homo sapiens, UniProt P07947)
T1 construct: U87 MG cells treated with A77 or DMSO vehicle were lysed in 1×RIPA buffer; endogenous in cells; called human GSCs
Assay: Immunoprecipitation/Western blot, phosphorylation state of Yes
Format: cell-based
Details: human glioma cells, 500 nm
Experimental: For immunoprecipitation studies, U87 MG cells treated with A77 or DMSO vehicle were lysed in 1×RIPA buffer containing protease and phosphatase inhibitors (Sigma). Lysates were cleared via centrifugation and were pre-cleared with TrueBlot anti-rabbit IgG beads (eBiosience) to remove non-specific binding. Primary antibodies against Lck, Src, Fyn, Lyn or Yes (Cell Signaling) were added and the lysates were incubated overnight at 4° C. with gentle rotation. The following day, TrueBlot anti-rabbit IgG (eBioscience) beads were added to the lysate and incubated at 4° C. for 2 hours. Immunoprecipitates were washed, solubilized in 2×Laemmli buffer and boiled for 5 minutes. The supernatants were separated on an 8% Bis-Tris SDS-PAGE gel, transferred to nitrocellulose and immunoblotted.

COc1cc(-c2nn([C@H]3CC[C@H](N4CCN(C(C)=O)CC4)CC3)c3ncnc(N)c23)ccc1NC(=O)c1cc2ccccc2n1C [Lck-I, A770041]
phosphorylation state of Yes: does not affect; also recorded: no effect
